Read-outs that look alike come from different tables or passages of the source. Blank lines part the entries; values can stand above or below the molecule they belong to.
How the values were obtained:
human hemoglobin (human) [1] = biological target: human hemoglobin (human) (UniProt P69905); assay: OC-Hemodia Auto III immunoassay, Hb 6.2 pmol/mL, Hpt 3.1 pmol/mL (0.5 Unit), no stool, initial value
human hemoglobin (human) [2] = biological target: human hemoglobin (human) (UniProt P69905); assay: OC-Hemodia Auto III immunoassay, Hb 9.3 pmol/mL, Hpt 2.325 pmol/mL (0.25 Unit), 0.5% feces, initial value
human hemoglobin (human) [3] = biological target: human hemoglobin (human) (UniProt P69905); assay: OC-Hemodia Auto III immunoassay, Hb 6.2 pmol/mL, Hpt 6.2 pmol/mL (1 Unit), no stool, initial value
human hemoglobin (human) [4] = biological target: human hemoglobin (human) (UniProt P69905); assay: OC-Hemodia Auto III immunoassay, Hb 6.2 pmol/mL, Hpt 0.775 pmol/mL (0.125 Unit), no stool, initial value
human hemoglobin (human) [5] = biological target: human hemoglobin (human) (UniProt P69905); assay: cell-based or functional assay
human hemoglobin (human) [6] = biological target: human hemoglobin (human) (UniProt P69905); assay: OC-Hemodia Auto III immunoassay, Hb 9.3 pmol/mL, Hpt 4.65 pmol/mL (0.5 Unit), 0.5% feces, initial value
human hemoglobin (human) [7] = biological target: human hemoglobin (human) (UniProt P69905); assay: OC-Hemodia Auto III immunoassay, Hb 6.2 pmol/mL, Hpt 1.55 pmol/mL (0.25 Unit), no stool, initial value
human hemoglobin (human) [8] = biological target: human hemoglobin (human) (UniProt P69905); assay: OC-Hemodia Auto III immunoassay, Hb 6.2 pmol/mL, Hpt 12.4 pmol/mL (2 Unit), no stool, initial value
human hemoglobin (human) [9] = biological target: human hemoglobin (human) (UniProt P69905); assay: OC-Hemodia Auto III immunoassay, Hb 9.3 pmol/mL, Hpt 9.3 pmol/mL (1 Unit), 0.5% feces, initial value
human hemoglobin (human) [10] = biological target: human hemoglobin (human) (UniProt P69905); assay: OC-Hemodia Auto III immunoassay, Hb 6.2 pmol/mL, Hpt 3.1 pmol/mL (0.5 Unit), no stool, initial value; remark: listed apart in the source
human hemoglobin (human) [11] = biological target: human hemoglobin (human) (UniProt P69905); assay: OC-Hemodia Auto III immunoassay, Hb 6.2 pmol/mL, Hpt 1.55 pmol/mL (0.25 Unit), no stool, initial value; remark: listed apart in the source
human hemoglobin (human) [12] = biological target: human hemoglobin (human) (UniProt P69905); assay: OC-Hemodia Auto III immunoassay, Hb 9.3 pmol/mL, Hpt 2.325 pmol/mL (0.25 Unit), 0.5% feces, initial value; remark: listed apart in the source
human hemoglobin (human) [13] = biological target: human hemoglobin (human) (UniProt P69905); assay: OC-Hemodia Auto III immunoassay, Hb 9.3 pmol/mL, Hpt 4.65 pmol/mL (0.5 Unit), 0.5% feces, initial value; remark: listed apart in the source
human hemoglobin (human) [14] = biological target: human hemoglobin (human) (UniProt P69905); assay: OC-Hemodia Auto III immunoassay, Hb 9.3 pmol/mL, Hpt 9.3 pmol/mL (1 Unit), 0.5% feces, initial value; remark: listed apart in the source
human hemoglobin (human) [15] = biological target: human hemoglobin (human) (UniProt P69905); assay: OC-Hemodia Auto III immunoassay, Hb 6.2 pmol/mL, Hpt 6.2 pmol/mL (1 Unit), no stool, initial value; remark: listed apart in the source
human hemoglobin (human) [16] = biological target: human hemoglobin (human) (UniProt P69905); assay: cell-based or functional assay; remark: listed apart in the source
human hemoglobin (human) [17] = biological target: human hemoglobin (human) (UniProt P69905); assay: OC-Hemodia Auto III immunoassay, Hb 6.2 pmol/mL, Hpt 0.775 pmol/mL (0.125 Unit), no stool, initial value; remark: listed apart in the source

Amino acid sequences for entries named in this document (tags omitted). Residues count along the entry.
UniProt P69905, 2-142, chain 1 of 2: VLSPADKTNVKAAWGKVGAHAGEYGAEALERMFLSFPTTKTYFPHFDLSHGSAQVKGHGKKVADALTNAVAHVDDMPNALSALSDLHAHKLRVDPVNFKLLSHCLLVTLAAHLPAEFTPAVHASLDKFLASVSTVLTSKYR

Ratio to no Hpt addition (%) (human hemoglobin (human) [1]): 93% | Ratio to no Hpt addition (%) (human hemoglobin (human) [2]): 98% | Ratio to no Hpt addition (%) (human hemoglobin (human) [3]): 87% | Ratio to no Hpt addition (%) (human hemoglobin (human) [4]): 98% | Residual Hb ratio (%), 37°C 7 days, Hpt 0.775 pmol/mL (0.125 Unit), no stool (human hemoglobin (human) [5]): 48% | Residual Hb ratio (%), 37°C 7 days, Hpt 1.55 pmol/mL (0.25 Unit), no stool (human hemoglobin (human) [5]): 51% | Residual Hb ratio (%), 37°C 7 days, Hpt 2.325 pmol/mL (0.25 Unit), 0.5% feces (human hemoglobin (human) [5]): 23% | Residual Hb ratio (%), 37°C 7 days, Hpt 3.1 pmol/mL (0.5 Unit), no stool (human hemoglobin (human) [5]): 57% | Residual Hb ratio (%), 37°C 7 days, Hpt 4.65 pmol/mL (0.5 Unit), 0.5% feces (human hemoglobin (human) [5]): 41% | Residual Hb ratio (%), 37°C 7 days, Hpt 6.2 pmol/mL (1 Unit), no stool (human hemoglobin (human) [5]): 80% | Residual Hb ratio (%), 37°C 7 days, Hpt 9.3 pmol/mL (1 Unit), 0.5% feces (human hemoglobin (human) [5]): 84% | Residual Hb ratio (%), 37°C 7 days, Hpt 12.4 pmol/mL (2 Unit), no stool (human hemoglobin (human) [5]): 101% | Residual Hb ratio (%), 37°C 14 days, Hpt 0.775 pmol/mL (0.125 Unit), no stool (human hemoglobin (human) [5]): 22% | Residual Hb ratio (%), 37°C 14 days, Hpt 1.55 pmol/mL (0.25 Unit), no stool (human hemoglobin (human) [5]): 31% | Residual Hb ratio (%), 37°C 14 days, Hpt 2.325 pmol/mL (0.25 Unit), 0.5% feces (human hemoglobin (human) [5]): 19% | Residual Hb ratio (%), 37°C 14 days, Hpt 3.1 pmol/mL (0.5 Unit), no stool (human hemoglobin (human) [5]): 44% | Residual Hb ratio (%), 37°C 14 days, Hpt 4.65 pmol/mL (0.5 Unit), 0.5% feces (human hemoglobin (human) [5]): 40% | Residual Hb ratio (%), 37°C 14 days, Hpt 6.2 pmol/mL (1 Unit), no stool (human hemoglobin (human) [5]): 83% | Residual Hb ratio (%), 37°C 14 days, Hpt 9.3 pmol/mL (1 Unit), 0.5% feces (human hemoglobin (human) [5]): 84% | Residual Hb ratio (%), 37°C 14 days, Hpt 12.4 pmol/mL (2 Unit), no stool (human hemoglobin (human) [5]): 100% | residual Hb ratio, 1 Unit of Hpt, 37°C 7 days, no stool (human hemoglobin (human) [5]): > 70% | Ratio to no Hpt addition (%) (human hemoglobin (human) [6]): 94% | Ratio to no Hpt addition (%) (human hemoglobin (human) [7]): 98% | Ratio to no Hpt addition (%) (human hemoglobin (human) [8]): 65% | Ratio to no Hpt addition (%) (human hemoglobin (human) [9]): 86%
Molecule: Human dHpt (ENGase) (from UniProt P00738 19-406)

Ratio to no Hpt addition (%) (human hemoglobin (human) [10]): 89% | Ratio to no Hpt addition (%) (human hemoglobin (human) [11]): 95% | Ratio to no Hpt addition (%) (human hemoglobin (human) [12]): 95% | Ratio to no Hpt addition (%) (human hemoglobin (human) [13]): 91% | Ratio to no Hpt addition (%) (human hemoglobin (human) [14]): 81% | Ratio to no Hpt addition (%) (human hemoglobin (human) [15]): 78% | Residual Hb ratio (%), 37°C 7 days, Hpt 0.775 pmol/mL (0.125 Unit), no stool (human hemoglobin (human) [16]): 41% | Residual Hb ratio (%), 37°C 7 days, Hpt 1.55 pmol/mL (0.25 Unit), no stool (human hemoglobin (human) [16]): 45% | Residual Hb ratio (%), 37°C 7 days, Hpt 2.325 pmol/mL (0.25 Unit), 0.5% feces (human hemoglobin (human) [16]): 19% | Residual Hb ratio (%), 37°C 7 days, Hpt 3.1 pmol/mL (0.5 Unit), no stool (human hemoglobin (human) [16]): 58% | Residual Hb ratio (%), 37°C 7 days, Hpt 4.65 pmol/mL (0.5 Unit), 0.5% feces (human hemoglobin (human) [16]): 34% | Residual Hb ratio (%), 37°C 7 days, Hpt 6.2 pmol/mL (1 Unit), no stool (human hemoglobin (human) [16]): 88% | Residual Hb ratio (%), 37°C 7 days, Hpt 9.3 pmol/mL (1 Unit), 0.5% feces (human hemoglobin (human) [16]): 69% | Residual Hb ratio (%), 37°C 14 days, Hpt 0.775 pmol/mL (0.125 Unit), no stool (human hemoglobin (human) [16]): 23% | Residual Hb ratio (%), 37°C 14 days, Hpt 1.55 pmol/mL (0.25 Unit), no stool (human hemoglobin (human) [16]): 34% | Residual Hb ratio (%), 37°C 14 days, Hpt 2.325 pmol/mL (0.25 Unit), 0.5% feces (human hemoglobin (human) [16]): 16% | Residual Hb ratio (%), 37°C 14 days, Hpt 3.1 pmol/mL (0.5 Unit), no stool (human hemoglobin (human) [16]): 58% | Residual Hb ratio (%), 37°C 14 days, Hpt 4.65 pmol/mL (0.5 Unit), 0.5% feces (human hemoglobin (human) [16]): 32% | Residual Hb ratio (%), 37°C 14 days, Hpt 6.2 pmol/mL (1 Unit), no stool (human hemoglobin (human) [16]): 87% | Residual Hb ratio (%), 37°C 14 days, Hpt 9.3 pmol/mL (1 Unit), 0.5% feces (human hemoglobin (human) [16]): 67% | residual Hb ratio, 1 Unit of Hpt, 37°C 7 days, no stool (human hemoglobin (human) [16]): > 70% | Ratio to no Hpt addition (%) (human hemoglobin (human) [17]): 97%
B1: Porcine dHpt (PNGase) (protein)
chain: AETGNEATDATDDSCPKPPEIPKGYVEHMVRYHCQTYYKLRTAGDGVYTLDSNKQWTNKVTGEKLPECEAVCGKPKNPVDQVQRIMGGSLDAKGSFPWQAKMISHHNLTSGATLINEQWLLTTAKNLRLGHKNDTKAKDIAPTLRLYVGKKQEVEIEKVIFHPDNSTVDIGLIKLKQKVPVNERVMPICLPSKDYVNVGLVGYVSGWGRNANLNFTEHLKYVMLPVADQEKCVQYYEGSTVPEKKTPKSPVGVQPILNEHTFCAGLSKYQEDTCYGDAGSAFAVHDKDDDTWYAAGILSFDKSCRTAEYGVYVRVTSILDWIQTTIADN
modifications: N-linked glycans (Asn 125, 151, 183, 232 of SEQ ID NO: 4) removed with PNGase F

Ratio to no Hpt addition (%) (human hemoglobin (human) [10]): 94% | Ratio to no Hpt addition (%) (human hemoglobin (human) [11]): 96% | Ratio to no Hpt addition (%) (human hemoglobin (human) [12]): 100% | Ratio to no Hpt addition (%) (human hemoglobin (human) [13]): 98% | Ratio to no Hpt addition (%) (human hemoglobin (human) [14]): 94% | Ratio to no Hpt addition (%) (human hemoglobin (human) [15]): 88% | Residual Hb ratio (%), 37°C 7 days, Hpt 0.775 pmol/mL (0.125 Unit), no stool (human hemoglobin (human) [16]): 45% | Residual Hb ratio (%), 37°C 7 days, Hpt 1.55 pmol/mL (0.25 Unit), no stool (human hemoglobin (human) [16]): 46% | Residual Hb ratio (%), 37°C 7 days, Hpt 2.325 pmol/mL (0.25 Unit), 0.5% feces (human hemoglobin (human) [16]): 18% | Residual Hb ratio (%), 37°C 7 days, Hpt 3.1 pmol/mL (0.5 Unit), no stool (human hemoglobin (human) [16]): 55% | Residual Hb ratio (%), 37°C 7 days, Hpt 4.65 pmol/mL (0.5 Unit), 0.5% feces (human hemoglobin (human) [16]): 30% | Residual Hb ratio (%), 37°C 7 days, Hpt 6.2 pmol/mL (1 Unit), no stool (human hemoglobin (human) [16]): 86% | Residual Hb ratio (%), 37°C 7 days, Hpt 9.3 pmol/mL (1 Unit), 0.5% feces (human hemoglobin (human) [16]): 57% | Residual Hb ratio (%), 37°C 14 days, Hpt 0.775 pmol/mL (0.125 Unit), no stool (human hemoglobin (human) [16]): 24% | Residual Hb ratio (%), 37°C 14 days, Hpt 1.55 pmol/mL (0.25 Unit), no stool (human hemoglobin (human) [16]): 33% | Residual Hb ratio (%), 37°C 14 days, Hpt 2.325 pmol/mL (0.25 Unit), 0.5% feces (human hemoglobin (human) [16]): 16% | Residual Hb ratio (%), 37°C 14 days, Hpt 3.1 pmol/mL (0.5 Unit), no stool (human hemoglobin (human) [16]): 54% | Residual Hb ratio (%), 37°C 14 days, Hpt 4.65 pmol/mL (0.5 Unit), 0.5% feces (human hemoglobin (human) [16]): 29% | Residual Hb ratio (%), 37°C 14 days, Hpt 6.2 pmol/mL (1 Unit), no stool (human hemoglobin (human) [16]): 88% | Residual Hb ratio (%), 37°C 14 days, Hpt 9.3 pmol/mL (1 Unit), 0.5% feces (human hemoglobin (human) [16]): 56% | residual Hb ratio, 1 Unit of Hpt, 37°C 7 days, no stool (human hemoglobin (human) [16]): > 70% | Ratio to no Hpt addition (%) (human hemoglobin (human) [17]): 98%
B2: Porcine dHpt (ENGase) (protein)
chain: AETGNEATDATDDSCPKPPEIPKGYVEHMVRYHCQTYYKLRTAGDGVYTLDSNKQWTNKVTGEKLPECEAVCGKPKNPVDQVQRIMGGSLDAKGSFPWQAKMISHHNLTSGATLINEQWLLTTAKNLRLGHKNDTKAKDIAPTLRLYVGKKQEVEIEKVIFHPDNSTVDIGLIKLKQKVPVNERVMPICLPSKDYVNVGLVGYVSGWGRNANLNFTEHLKYVMLPVADQEKCVQYYEGSTVPEKKTPKSPVGVQPILNEHTFCAGLSKYQEDTCYGDAGSAFAVHDKDDDTWYAAGILSFDKSCRTAEYGVYVRVTSILDWIQTTIADN
modifications: N-linked glycans (Asn 125, 151, 183, 232 of SEQ ID NO: 4) cut with Endo F2; by the description one GlcNAc, with or without fucose, remains

— patent publication EP4675276A1
